Data taken from patent publication US10105357B2, “Indication of antibiotic drugs for preparation of cancer inhibition pharmaceutical composition” (LAUNX BIOMEDICAL CO., LTD., priority 2014, dated 2018).

Assays:
[1] = test system: MKN-45 (Gastric Adenocarcinoma); test: Cell viability analysis, gastric cancer MKN-45; conditions: Homo sapiens, MKN-45, 72 h, read-out: cell viability (survival rate), MKN-45
[2] = test system: HI650 (Lung Adenocarcinoma); test: Cell viability analysis, lung cancer HI650; conditions: Homo sapiens, NCI-H1650, 72 h, read-out: cell viability (survival rate), H1650
[3] = test system: AGS (Gastric Adenocarcinoma); test: Cell viability analysis, gastric cancer AGS; conditions: Homo sapiens, 72 h, read-out: cell viability (survival rate), AGS
[4] = test system: A549 (Lung Adenocarcinoma); test: Cell viability analysis, lung cancer A549; conditions: Homo sapiens, A549, 72 h, read-out: cell viability (survival rate), A549
[5] = test system: TSGH-8301 (Urinary Bladder Carcinoma); test: Cell viability analysis, bladder cancer TSGH-8301; conditions: Homo sapiens, 72 h, read-out: cell viability (survival rate), TSGH
[6] = test system: A375 (Amelanotic Melanoma); test: Cell viability analysis, skin cancer A375; assay type: cell-based, human; conditions: A375; repeated experiment

Structure (SMILES)	viability at 10 µM [1] [%]	viability at 10 µM [2] [%]	viability at 10 µM [3] [%]	viability at 10 µM [4] [%]	viability at 10 µM [5] [%]	The results of antibiotic drug inhibiting cancer cell lines (cell viability analysis), A375 [6]
CC1(C)[C@H](C(=O)O)N2C(=O)C[C@H]2S1(=O)=O [Sulbactam]	77.8	67	80.5	81.1	133	
CN[C@H](CC(C)C)C(=O)N[C@H]1C(=O)N[C@@H](CC(N)=O)C(=O)N[C@H]2C(=O)N[C@H]3C(=O)N[C@H](C(=O)N[C@H](C(=O)O)c4cc(O)cc(O)c4-c4cc3ccc4O)[C@H](O)c3ccc(c(Cl)c3)Oc3cc2cc(c3O[C@@H]2O[C@H](CO)[C@@H](O)[C@H](O)[C@H]2O[C@H]2C[C@](C)(N)[C@H](O)[C@H](C)O2)Oc2ccc(cc2Cl)[C@H]1O.Cl [Vancomycin HCl (Vancocin)]						83.4
